Values of other authors as cited in US20260345555A1, “Compositions and Methods for Protecting Salivary Glands from Off-Target Radiation Damage” (University of Rochester, priority 2022, published 2026).

Conditions: in vivo; cited from earlier work

In the case of `COc1ccc2[nH]cc(CCNC(C)=O)c2c1` [Melatonin], the “bioavailability” value is listed as “poor bioavailability”.
